EP0450097B1, “BENZOHETEROCYCLIC COMPOUNDS” (OTSUKA PHARMACEUTICAL CO., LTD., priority 1989, dated 1991)

Protein sequences, listed by entry. Tags and fused reporters are not part of them.
UniProt Q00788, whole entry: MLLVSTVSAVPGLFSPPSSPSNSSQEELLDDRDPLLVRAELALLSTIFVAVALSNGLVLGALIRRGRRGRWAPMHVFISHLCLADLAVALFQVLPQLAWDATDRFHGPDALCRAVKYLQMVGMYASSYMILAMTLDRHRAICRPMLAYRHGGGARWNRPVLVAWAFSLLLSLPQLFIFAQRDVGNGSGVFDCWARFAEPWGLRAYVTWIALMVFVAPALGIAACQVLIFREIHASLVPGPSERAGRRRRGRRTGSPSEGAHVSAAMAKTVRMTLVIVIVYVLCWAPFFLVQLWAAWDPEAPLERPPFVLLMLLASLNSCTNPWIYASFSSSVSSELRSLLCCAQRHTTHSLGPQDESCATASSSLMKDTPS

Biological target: V₂ receptor (Rattus norvegicus, UniProt Q00788)
Test: V₂ receptor binding assay ([³H]-Arg-vasopressin, rat kidney plasma membrane preparations)
Settings: 4°C for 3 hours

Compound | IC50 [µM] | further results
C=CCNC1CCN(C(=O)c2ccc(NC(=O)c3cc(Cl)cc(Cl)c3)cc2)c2ccccc2C1 (stereo not shown) | 0.028 | 
NCc1ccc(NCC(=O)Nc2ccc(C(=O)N3CCCCc4ccccc43)cc2)cc1 | 0.23 | 
Cc1ccccc1NC(=O)Nc1ccc(C(=O)N2CCCCc3ccccc32)cc1 | 0.062 | 
Cc1ccccc1C(=O)Nc1ccc(C(=O)N2CCCC(NCCN(C)C)c3ccccc32)c(Cl)c1 (stereo not shown) | 0.006 | 
CC(=O)OCCCN(C)C1CCCN(C(=O)c2ccc(NC(=O)c3ccccc3C)cc2)c2ccccc21 (stereo not shown) | 0.046 | 
O=C(Nc1ccc(C(=O)N2CCCc3cc(F)ccc32)cc1)c1cc(Cl)cc(Cl)c1 | 0.1 | 
Cc1ccccc1C(=O)Nc1ccc(C(=O)N2CCSc3ccccc32)cc1 | 0.38 | 
Nc1ccc(C(=O)Nc2ccc(C(=O)N3CCCCc4ccccc43)cc2)c(Cl)c1 | 0.081 | 
O=C(COc1ccc2ccccc2c1)Nc1ccc(C(=O)N2CCCCc3ccccc32)cc1 | 0.49 | 
CN1CCN(C(=O)c2ccc(NC(=O)c3cc(Cl)cc(Cl)c3Cl)cc2)c2ccccc2C1 | 0.068 | 
COC1CCCN(C(=O)c2ccc(NC(=O)c3ccc(Cl)cc3Cl)cc2)c2ccccc21 (stereo not shown) | 0.004 | 
COc1cc(C(=O)N2CCCC(N(C)C)c3ccccc32)ccc1NC(=O)c1cc(Cl)cc(Cl)c1Cl (stereo not shown) | 0.15 | 
CN1CCN(C(=O)c2ccc(NC(=O)c3cc(Cl)cc(Cl)c3)cc2)c2ccccc2C1 |  | IC50 (tested form: HCl): 0.07 µM
Cc1ccccc1C(=O)Nc1ccc(C(=O)N2CCCC(N(C)CCCO)c3ccccc32)cc1 (stereo not shown) | 0.03 | 
Cc1ccccc1C(=O)Nc1ccc(C(=O)N2CCCC(NC3CC3)c3ccccc32)c(Cl)c1 (stereo not shown) | 0.019 | 
O=C(CN1C(=O)c2ccccc2C1=O)Nc1ccc(C(=O)N2CCCCc3ccccc32)cc1 | 0.72 | 
CC(C)N1CCN(C(=O)c2ccc(NC(=O)c3cc(Cl)cc(Cl)c3)cc2)c2ccccc2C1 | 0.18 | 
CCN(CC)CC(O)CN(C)C1CCCN(C(=O)c2ccc(NC(=O)c3ccccc3C)cc2)c2ccccc21 (stereo not shown) | 0.027 | 
CCN(C)C1CCN(C(=O)c2ccc(NC(=O)c3cc(Cl)cc(Cl)c3)cc2)c2ccccc21 (stereo not shown) | 0.027 | 
CN(C)C1CCN(C(=O)c2ccc(NC(=O)c3ccccc3Cl)cc2)c2ccccc2C1 (stereo not shown) | 0.14 | 

Compound | IC50 [µM] | further results
CC(C)(C)NCC(=O)Nc1ccc(C(=O)N2CCCCc3ccccc32)cc1 | 0.6 | 
COc1cc(C(=O)N2CCCC(N(C)C)c3ccccc32)ccc1NC(=O)c1ccccc1C (stereo not shown) | 0.048 | 
O=C(Nc1ccc(C(=O)N2CCCCc3ccccc32)cc1)c1ccc([N+](=O)[O-])cc1Cl | 0.09 | 
CCOC(=O)COC1CCCN(C(=O)c2ccc(NC(=O)c3ccccc3C)cc2)c2ccccc21 (stereo not shown) | 0.02 | 
Cc1ccccc1C(=O)Nc1ccc(C(=O)N2CCCC(N(C)C)c3ccccc32)c(Cl)c1 (stereo not shown) | 0.018 | 
COCC(O)CN(C)C1CCCN(C(=O)c2ccc(NC(=O)c3ccccc3C)cc2)c2ccccc21 (stereo not shown) | 0.059 | 
COc1cc(C(=O)N2CCCC(N(C)C)c3ccccc32)ccc1NC(=O)c1ccccc1Cl (stereo not shown) | 0.048 | 
CC(=O)Nc1ccc(C(=O)Nc2ccc(C(=O)N3CCCCc4ccccc43)cc2)c(Cl)c1 | 0.45 | 
CCN1CCN(C(=O)c2ccc(NC(=O)c3cccc(C)c3C)cc2)c2ccccc2C1 | 0.081 | 
O=C(c1ccc(N(C(=O)c2cc(Cl)cc(Cl)c2)C(=O)c2cc(Cl)cc(Cl)c2)cc1)N1CCCc2cc(F)ccc21 | 0.1 | 
O=C(O)COc1ccccc1C(=O)Nc1ccc(C(=O)N2CCCCc3ccccc32)cc1 | 0.55 | 
COc1cc(C(=O)N2CCC(N(C)C)c3ccccc32)ccc1NC(=O)c1ccccc1C (stereo not shown) | 0.022 | 
CCOC(=O)COC1CCCN(C(=O)c2ccc(NC(=O)c3ccc(Cl)cc3Cl)cc2)c2ccccc21 (stereo not shown) | 0.063 | 
Cc1ccccc1NC(=O)c1ccc(C(=O)N2CCCC(N(C)C)c3ccccc32)cc1 (stereo not shown) | 0.02 | 
Cc1ccccc1C(=O)Nc1ccc(C(=O)N2CCCC(N(C)C)c3ccccc32)cc1O (stereo not shown) | 0.083 | 
Cc1ccccc1C(=O)Nc1ccc(C(=O)N2CCCC(O)c3c(C)cccc32)c(Cl)c1 (stereo not shown) | 0.022 | 
O=C(Nc1ccc(C(=O)N2CCCC(N3CCOCC3)c3ccccc32)cc1)c1ccccc1Cl (stereo not shown) | 0.12 | 
O=C(Nc1ccc(C(=O)N2CCOCc3ccccc32)cc1)C1CCCCC1 | 0.33 | 
Cc1ccccc1C(=O)Nc1ccc(C(=O)N2CCCN(C)Cc3ccccc32)cc1 | 0.41 | 
CC(=O)OC1CCCN(C(=O)c2ccc(NC(=O)c3ccccc3Cl)cc2)c2ccccc21 (stereo not shown) | 0.063 | 

Compound | IC50 [µM] | further results
CC(=O)NCCCN(CC(=O)Nc1ccc(C(=O)N2CCCCc3ccccc32)cc1)c1ccccc1 | 0.29 | 
CNCC1(O)CCCN(C(=O)c2ccc(NC(=O)c3ccccc3C)cc2)c2ccccc21 (stereo not shown) | 0.4 | 
O=C(c1ccc(NS(=O)(=O)c2ccccc2Cl)cc1)N1CCCCc2ccccc21 | 0.99 | 
CNC1(CO)CCCN(C(=O)c2ccc(NC(=O)c3ccccc3C)cc2)c2ccccc21 (stereo not shown) | 0.17 | 
Cc1cc(C(=O)N2CCN(C)Cc3ccccc32)ccc1NC(=O)c1ccc(Cl)cc1Cl | 0.34 | 
O=C(Nc1ccc(C(=O)N2CCCCc3ccccc32)cc1)c1ccncc1 | 0.29 | 
CN(C)CC1CCN(C(=O)c2ccc(NC(=O)c3cc(Cl)cc(Cl)c3)cc2)c2ccccc21 (stereo not shown) | 0.056 | 
O=C(Nc1ccc(C(=O)N2CCCC(=NO)c3ccccc32)cc1)c1cc(Cl)cc(Cl)c1 | 0.039 | 
CC(=O)OC1CCN(C(=O)c2ccc(NC(=O)c3ccccc3C)cc2)c2ccccc21 (stereo not shown) | 0.18 | 
CNC1CCCN(C(=O)c2ccc(NC(=O)c3ccccc3C)cc2Cl)c2ccccc21 (single isomer, unassigned) | 0.005 | 
O=C(O)COC1CCCN(C(=O)c2ccc(NC(=O)c3ccccc3Cl)cc2)c2ccccc21 (stereo not shown) | 0.059 | 
CN1CCN(C(=O)c2ccc(NC(=O)c3cccc(Cl)c3)cc2)c2ccccc2C1 | 0.11 | 
Cc1ccccc1C(=O)Nc1ccc(C(=O)N2CCCC(N(C)C(=O)c3ccccc3)c3ccccc32)cc1 (stereo not shown) | 0.25 | 
Cc1ccccc1C(=O)Nc1ccc(C(=O)N2CCCC(N(C)CC(=O)O)c3ccccc32)cc1 (stereo not shown) |  | IC50 (tested form: K salt): 0.25 µM
COc1cccc(C(=O)Nc2ccc(C(=O)N3CCCC(N(C)C)c4ccccc43)cc2)c1 (stereo not shown) | 0.032 | 
Cc1ccccc1C(=O)Nc1ccc(C(=O)N2CCCSc3ccccc32)cc1 | 0.07 | 
CCOc1cc(C(=O)N2CCCC(N(C)C)c3ccccc32)ccc1NC(=O)c1ccccc1C (stereo not shown) | 0.098 | 
Cc1ccccc1C(=O)Nc1ccc(C(=O)N2CCCC(=NOS(=O)(=O)O)c3ccccc32)c(Cl)c1 |  | IC50 (tested form: K salt): 0.4 µM
